These are literature values, as cited in patent publication US20120190751A1, “COMPOUNDS FOR TREATMENTS OF INFLAMMATION” (ANA-MAR AB, priority 2009, published 2012).

By UniProt entry, the sequences of proteins in these tests, tags left out.
UniProt P41595, whole entry: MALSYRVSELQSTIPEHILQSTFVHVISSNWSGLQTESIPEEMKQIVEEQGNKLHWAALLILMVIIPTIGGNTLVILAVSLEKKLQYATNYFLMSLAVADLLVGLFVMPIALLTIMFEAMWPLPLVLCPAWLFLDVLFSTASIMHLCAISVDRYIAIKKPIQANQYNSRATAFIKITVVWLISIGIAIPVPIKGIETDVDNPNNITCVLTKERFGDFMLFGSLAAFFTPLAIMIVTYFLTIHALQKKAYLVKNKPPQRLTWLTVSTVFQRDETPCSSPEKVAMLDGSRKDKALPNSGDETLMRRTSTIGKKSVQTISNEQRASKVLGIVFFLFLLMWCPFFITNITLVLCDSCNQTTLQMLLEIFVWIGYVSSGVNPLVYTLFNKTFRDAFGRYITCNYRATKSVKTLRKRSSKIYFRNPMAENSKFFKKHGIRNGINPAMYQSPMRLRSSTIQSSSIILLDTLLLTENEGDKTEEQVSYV

This data set concerns the target 5HT2B receptor (Homo sapiens, UniProt P41595). The note with it: cited from earlier work.

Turning to mesulergine, the Affinity is listed as 7.4 pKi.
